# AlphaSeq binding of Ab-14 light chain variants to a spike HR2 peptide

Reference: Engelhart et al. 2022, doi:10.1038/s41597-022-01779-4. File: FLAb, binding data.

Target peptide (SARS-CoV-2 spike, HR2 region): PDVDLGDISGINAS

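The parent was found by panning a naive human phage display library on the peptide. The library (AAYL50) carries one to three amino acid substitutions per variant, with no insertions or deletions. Affinity was read by AlphaSeq, a pooled yeast mating assay with surface-displayed partners. The frequency of each diploid, read from paired DNA barcodes, reflects how well the two displayed proteins bind. Scores were corrected for input abundance and mapped to Kd with protein pairs of known affinity run in the same pool. There are three technical replicates.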

Parent: Ab-14, a human scFv built as VH, three GGGGS repeats, VL. Only the CDRs of the light chain vary.
VH: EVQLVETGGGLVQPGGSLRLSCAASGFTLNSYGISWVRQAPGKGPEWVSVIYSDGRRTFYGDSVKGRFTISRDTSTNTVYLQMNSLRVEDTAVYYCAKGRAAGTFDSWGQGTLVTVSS
VL: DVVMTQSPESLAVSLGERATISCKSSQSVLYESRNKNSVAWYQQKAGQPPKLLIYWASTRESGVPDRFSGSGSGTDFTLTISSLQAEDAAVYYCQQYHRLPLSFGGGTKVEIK

Each variant is given by its three light chain CDRs, as the data file delimits them; those of the parent are KSSQSVLYESRNKNSVA, WASTRES, QQYHRLPLS. Affinities are written as log10 Kd with Kd in nM; a lower number is a better binder. Where no diploid with the target was found in that replicate, the entry reads "ND": below detection, most likely a poor binder, though not proof of it. Empty control strains, which show no peptide, gave a signal in 18% of pairings with library AAYL50; the median was 4.19 and 95% of these signals were weaker than 2.99. No background was subtracted. Also given: how often the same scFv was detected with the empty control strains, with their mean in brackets.

CDR-L1,CDR-L2,CDR-L3,"replicates, log10 nM",empty controls
KMSQSVLYESRNKNSVA,WASVRES,QQYHVLPLS,0.73 / 1.12 / 0.90,1/9 (3.22)
KSSMSVLYESRNKNSVA,WASTRED,QQYHRGPLS,ND / ND / ND,0/9
KSSQSVLYESRNCNSVA,WAHTRES,QQQHRLPLS,ND / 3.76 / ND,0/9
KSSQSVLYESRNKNSVD,WASTRRS,QQYHRKPLS,ND / ND / ND,1/9 (3.52)
KSNQSVLYESRNKNSVA,WPSTHES,QQYHRLPLS,ND / ND / ND,0/9
KSSQSVLYESGNKTSVA,WCSTRES,QQYHRLPLS,ND / ND / ND,0/9
KSSQSVLYESRNKNSVA,WASTREE,QQYPRDPLS,2.71 / ND / ND,0/9
KVSQSILYESRNKNSVA,WASTRES,QVYHRLPLS,0.79 / 1.04 / 1.09,1/9 (6.22)
KSSQSVLYESRNKNSVA,WASTSES,QQIQRLPLS,ND / ND / ND,0/9
KSSVSVLYESRNPNSVA,WASTRES,QQYHRLHLS,4.03 / ND / ND,0/9
KSSQSVLHESRNKNSVA,WASTRTS,QVYHRLPLS,2.22 / 1.98 / 2.34,1/9 (3.41)
KSSQSILYESRNDNSVA,WASTRES,QQYHRLPLS,0.60 / 0.76 / 0.80,1/9 (3.25)
KSLQSVPYENRNKNSVA,WASTRES,QQYHRLPLS,0.56 / 0.79 / 0.72,2/9 (4.33)
KSSMSVNHESRNKNSVA,WASTRES,QQYHRLPLS,0.39 / 0.66 / 0.72,0/9
KSSQSVLYESRNKASVA,WASTRES,QQYQRIPLS,2.18 / 2.55 / 2.39,0/9
KSSQWVLYESRNVNCVA,WASTRES,QQYHRLPLS,5.11 / ND / ND,0/9
KSSQSVLYESRNKMSSA,WASVRES,QQYHRLPLS,ND / 3.98 / ND,1/9 (3.71)
KSSTSVLYESRNKNSVA,WASTFES,EQYHRLPLS,ND / 5.84 / 4.42,7/9 (4.73)
KSAQSVLYESRNKNSIA,YASTRES,QQYHRLPLS,ND / ND / ND,0/9
KSTQSVKYESRNKNSVA,WASTRES,QQYHRLPKS,ND / ND / 2.98,0/9
KSSQSVLYESRNKNSTP,WASYRES,QQYHRLPLS,ND / 3.69 / ND,2/9 (3.22)
KSSQSYLYESRNKSSMA,WASTRES,QQYHRLPLS,2.90 / 2.36 / 2.17,2/9 (4.46)
KSSPSVLYESRNKNSVA,WNSTRES,QQNHRLPLS,ND / 4.45 / 2.98,1/9 (2.50)
KSSQSVLYESRNKNSVA,WASTRAS,QFYHRLPLK,ND / ND / ND,0/9
KSSQSVLYGSRNKNSVR,WASTRES,QTYHRLPLS,ND / 5.18 / ND,2/9 (4.12)
KSSQSVDYESRNKNSVA,WASTRES,QQYHRLPLS,0.58 / 0.87 / 0.79,3/9 (4.27)
KSSQSVLYESRNKNSVA,WASTRES,QFYHRLWLS,ND / ND / ND,1/9 (2.73)
KSSISRLYESRNKNSVA,WASTRES,QQYHRLPLS,1.20 / 1.08 / 1.17,0/9
KSSWSVLYEERNKNSEA,WASTRES,QQYHRLPLS,4.17 / ND / ND,3/9 (4.98)
KSSQSVLYHSYNKNSVA,WASTRES,QQYHRLPLS,1.26 / 1.30 / 1.25,0/9
KSPQSVLYESRNGNSVA,WASTRES,LQYHRLPLS,ND / ND / ND,2/9 (3.86)
KSSGSVLYEYRNKNSVA,WASTRES,QAYHRLPLS,3.95 / 4.98 / ND,1/9 (4.57)
KYSQIVLYESRNKNSVA,WASTRES,QQYIRLPLS,0.98 / 1.82 / 3.14,0/9
MSSDSVLYESRNKNSVA,RASTRES,QQYHRLPLS,0.46 / 0.72 / 0.51,1/9 (5.08)

Repeated from above, the 4 best binders with a signal in all replicates:

| CDR-L1 | CDR-L2 | CDR-L3 | replicates, log10 nM | empty controls |
|---|---|---|---|---|
| MSSDSVLYESRNKNSVA | RASTRES | QQYHRLPLS | 0.46 / 0.72 / 0.51 | 1/9 (5.08) |
| KSSMSVNHESRNKNSVA | WASTRES | QQYHRLPLS | 0.39 / 0.66 / 0.72 | 0/9 |
| KSLQSVPYENRNKNSVA | WASTRES | QQYHRLPLS | 0.56 / 0.79 / 0.72 | 2/9 (4.33) |
| KSSQSILYESRNDNSVA | WASTRES | QQYHRLPLS | 0.60 / 0.76 / 0.80 | 1/9 (3.25) |